One-dose inflammasome screen (PubChem AID 2061109, Seoul National University)
system: mouse macrophages from bone marrow, LPS + nigericin (NLRP3)
compound dose: 5 µM
value: % inhibition of cell death (propidium iodide), 0 = stimulated, 100 = untreated, floor at 0
*: called active, above 70% Part of the library is listed.

| compound | inhibition (%) |
|---|---|
| O=C(O)/C=C/c1cc(Br)c(Br)c(Br)c1Br | 0.0 |
| C#CCOc1ccc(Nc2nc(Nc3ccc(C)c(S(N)(=O)=O)c3)ncc2F)cc1 | 44.5 |
| CCCCCCCCCCCCCCCCCCCCC | 0.0 |
| C[C@]12C=CC(=O)N[C@@H]1CC[C@@H]1[C@@H]2CC[C@]2(C)[C@@H](C(=O)Nc3cc(C(F)(F)F)ccc3C(F)(F)F)CC[C@@H]12 | 0.0 |
| O=C(c1cn[nH]n1)N1CC2CCC(C1)N2S(=O)(=O)c1cccc(F)c1 | 0.0 |
| CC(C)c1cc(C(=O)N2Cc3ccc(CN4CCN(C)CC4)cc3C2)c(O)cc1O | 69.8 |
| COc1cccc(-c2cc(=O)c3ccccc3o2)c1N | 0.0 |
| COc1ccc(-c2cc(=O)c3c(O)cc(O[C@@H]4O[C@H](CO[C@@H]5O[C@@H](C)[C@H](O)[C@@H](O)[C@H]5O)[C@@H](O)[C@H](O)[C@H]4O)cc3o2)cc1 | 62.4 |
| Cl.O=C(O)c1cc(-c2ccc(C3CCNCC3)cc2)c2ccc(-c3ccc(C(F)(F)F)cc3)cc2c1 | 10.5 |
| c1cc(-c2nc3ccc(-c4ccc5nc(-c6ccncc6)[nH]c5c4)cc3[nH]2)ccn1 | 50.3 |
| Cc1cc(C(=O)NNCc2ccccc2)no1 | 83.6* |
| Cn1nccc1[C@H]1CCCC[C@@H]1Oc1cc(F)c(S(=O)(=O)Nc2ccncn2)cc1Cl | 0.0 |
| CS(=O)(=O)c1ccc(Oc2cc(F)cc(C#N)c2)c2c1C(O)C(F)C2 | 33.7 |
| Cc1cncc(-c2nc(NCCc3c[nH]c4ccccc34)c3ncn(C(C)C)c3n2)c1 | 0.0 |
| CCCS(=O)(=O)Nc1ccc(F)c(C(=O)c2c[nH]c3ncc(Cl)cc23)c1F | 0.0 |
| CNCc1cc(-c2ccccc2F)n(S(=O)(=O)c2cccnc2)c1.O=C(O)/C=C/C(=O)O | 0.0 |
| Cc1c(COc2ccc(CN3CCCCC3C(=O)O)cc2Br)cccc1-c1ccccc1 | 0.0 |
| N#C[C@@H]1C[C@@H]2C[C@@H]2N1C(=O)[C@@H](N)C12CC3CC(CC(O)(C3)C1)C2.O | 0.0 |
| N[C@@H](CCCCNC(=O)OCc1ccc([N+](=O)[O-])cc1)C(=O)N1CCCC1 | 1.7 |
| Cc1cc(C)c2c(c1)[C@@H](N(Cc1cc(C(F)(F)F)cc(C(F)(F)F)c1)c1nnn(C)n1)CCCN2CC1CCC(C(=O)O)CC1 | 34.6 |
| CCCCCCS(=O)(=O)NC(=O)c1ccc(CSCc2ccc(-c3ccccc3)cc2)cc1 | 62.8 |
| COc1ccc2c(c1)C(c1ccc(F)cc1)=C(CN1CCCC1)CO2.Cl | 53.4 |
| Cc1c(C(C)C)c(=O)n(-c2ccccc2)n1C | 79.8* |
| C[C@@H](O)CCCCn1c(=O)c2c(ncn2C)n(C)c1=O | 0.0 |
| CC(C)[C@@H]1NC(=O)[C@H](C)OC(=O)[C@@H](C(C)C)NC(=O)[C@@H](C(C)C)OC(=O)[C@H](C(C)C)NC(=O)[C@H](C)OC(=O)[C@@H](C(C)C)NC(=O)[C@@H](C(C)C)OC(=O)[C@H](C(C)C)NC(=O)[C@H](C)OC(=O)[C@@H](C(C)C)NC(=O)[C@@H](C(C)C)OC1=O | 0.0 |
| Cc1cnn(C2CCN(c3nc4ccccc4n3Cc3ccc(F)cc3)CC2)c1 | 48.8 |
| CCN(CCCCOc1ccc(/C=C/C(=O)N2CCc3ccccc3C2)cc1OC)Cc1ccccc1 | 23.3 |
| COC[C@H]1Cn2cc(-c3nc(Nc4ccnn4C)ncc3C)nc2C(=O)N1Cc1ccc(F)c(F)c1 | 0.0 |
| C#Cc1cccc(Nc2ncnc3cc(OCCOC)c(OCCO)cc23)c1.Cl | 43.6 |
| Cc1cccc(-c2[nH]ncc2-c2ccc3nccnc3c2)n1 | 55.2 |
| COc1ccc2[nH]c(S(=O)Cc3ncc(C)c(OC)c3C)nc2n1 | 53.6 |
| CC1(N)CCN(c2cccnc2NC(=O)c2nc(-c3ncccc3C(F)(F)F)cnc2N)CC1 | 33.6 |
| O=C(NC(=O)c1c(F)cccc1F)Nc1cc(Cl)c(OC(F)(F)C(F)C(F)(F)F)cc1Cl | 34.8 |
| COc1cc(C(C)=O)ccc1O | 0.0 |
| COC(=O)c1ccc([C@H]2c3[nH]c4ccccc4c3C[C@H](C(=O)OC)N2C(=O)CCl)cc1 | 47.9 |
| C[C@@H]1CN(CC(=O)Nc2ccc3c(c2)Cc2cccc(-c4cc(=O)cc(N5CCOCC5)o4)c2S3)C[C@H](C)O1 | 0.0 |
| Nc1ncc(-c2cnn(CCO)c2)c2scc(-c3ccc(NC(=O)Nc4cccc(F)c4)cc3)c12 | 0.0 |
| CCOc1ccc(Nc2ccc(C(=C3C=CC(=[N+](CC)Cc4cccc(S(=O)(=O)[O-])c4)C=C3C)c3ccc(N(CC)Cc4cccc(S(=O)(=O)[O-])c4)cc3C)cc2)cc1.[Na+] | 46.9 |
| O=C(NCCN1CCC2(CC1)C(=O)NCN2c1ccccc1)c1ccc2ccccc2c1 | 0.0 |
| CC1(C)CC(=O)c2sc(=Nc3ccccc3)oc2C1 | 0.0 |
| CS(=O)(=O)CCC#N | 67.1 |
| COc1ncc(-c2ccc3c(Nc4cc(Oc5cc(F)cc(F)c5)cc(C(=O)O)c4)c(S(=O)(=O)NC4CC4)cnc3c2)c(OC)n1 | 67.3 |
| Cc1c(C(=O)Nc2ccc(Oc3ccnc4[nH]cc(-c5ccccc5)c34)c(F)c2)c(=O)n(-c2ccc(F)cc2)n1C | 0.0 |
| COc1cc(/C=N/O)nc(-c2ccccn2)c1 | 0.0 |
| O=C1c2c(O)cc(O)cc2O[C@H](c2cc(O)c(O)c(O)c2)[C@H]1O | 0.0 |
| Cc1ccc(-n2nc(C(C)(C)C)cc2NC(=O)Nc2ccc(OCCN3CCOCC3)cc2)cc1 | 73.8* |
| Cc1ccccc1C(C(=O)NC1CCCCC1)N(C(=O)Cn1ccnc1C)c1cccc(F)c1 | 0.0 |
| CN(CCOc1ccc(CC2SC(=O)NC2=O)cc1)c1ccccn1.O=C(O)/C=C\C(=O)O | 0.0 |
| O=C(Nc1ccc(C(F)(F)F)cc1)c1cc(Cl)cc2[nH]c(C(F)(F)F)nc12 | 0.0 |
| O=C(O)/C=C/C(=O)O.c1ccc(C(O[C@@H]2CCCN(CCc3ccc4c(c3)OCO4)C2)c2ccccc2)cc1 | 19.5 |
| COc1ccc2[nH]cc(CCNC(C)=O)c2c1 | 1.0 |
| C=CCc1c(O)ccc2nc3c(cc12)Cn1c-3cc2c(c1=O)COC(=O)[C@]2(O)CC | 0.0 |
| CCC(=O)N1CCC(NC(=O)Nc2ccc(OC(F)(F)F)cc2)CC1 | 0.0 |
| COc1cc2ncnc(N3CCN(C(=O)Nc4ccc(Oc5ccccc5)cc4)CC3)c2cc1OC | 0.0 |
| CC(C)c1ccc(C=O)cc1 | 0.0 |
| Cl.Cl.NC/C=C(\F)CS(=O)(=O)c1cccc2cccnc12 | 0.0 |
| C[C@@H](OC[C@@]1(c2ccccc2)CC[C@]2(CCC(=O)N2)CN1)c1cc(C(F)(F)F)cc(C(F)(F)F)c1.Cl | 25.1 |
| O=c1cc2c(=O)oc3cc(O)c(O)oc3c2c(O)c1O | 44.3 |
| Cc1ccc2c(c1)C(=O)[C@]1(O)CCN(c3ccccc3)C1=N2 | 0.0 |
| CC[C@@H](c1nc2cccc(F)c2c(=O)n1C1CC1)n1nc(-c2ccc(OC)c(F)c2)c2c(N)ncnc21 | 0.0 |
| CC(=O)Nc1ccc(C(=O)Nc2ccc(F)cc2N)cc1 | 45.0 |
| Cc1nccn1-c1ccc(Sc2cccc(C3(C(N)=O)CCOCC3)c2)cc1.Cl | 0.0 |
| CC(C)N1CCC(NC(=O)c2c(Cl)cccc2Cl)CC1 | 0.0 |
| N#C/C(=C\c1cccnc1)c1c[nH]c2ccccc12 | 14.9 |
| CC1(C)C[C@@H]1C(=O)N/C(=C\CCCCSC[C@H](N)C(=O)O)C(=O)O | 0.0 |
| CCOc1ccccc1C(=O)NCc1coc(-c2ccc(OC(F)F)c(OC(C)C)c2)n1 | 0.0 |
| COc1cc(O)cc(O)c1C(=O)/C=C/c1ccc(O)cc1 | 59.9 |
| OCCOc1ccccc1 | 0.0 |
| CN1CCC(Nc2ncc3ncnc(Nc4ccc(F)c(Cl)c4)c3n2)CC1 | 62.7 |
| COc1cc(F)c(F)c(Nc2ccc(I)cc2F)c1NS(=O)(=O)C1(C[C@H](O)CO)CC1 | 60.8 |
| COc1cc([C@@H]2c3cc4c(cc3[C@H](O)[C@H]3COC(=O)[C@@H]23)OCO4)cc(OC)c1OC | 62.6 |

For reference, 11 entries again:

compound,inhibition (%)
COc1cc(/C=N/O)nc(-c2ccccn2)c1,0.0
Cc1cnn(C2CCN(c3nc4ccccc4n3Cc3ccc(F)cc3)CC2)c1,48.8
Cc1ccc2c(c1)C(=O)[C@]1(O)CCN(c3ccccc3)C1=N2,0.0
Cc1cncc(-c2nc(NCCc3c[nH]c4ccccc34)c3ncn(C(C)C)c3n2)c1,0.0
O=C(Nc1ccc(C(F)(F)F)cc1)c1cc(Cl)cc2[nH]c(C(F)(F)F)nc12,0.0
Cc1nccn1-c1ccc(Sc2cccc(C3(C(N)=O)CCOCC3)c2)cc1.Cl,0.0
COc1ccc(-c2cc(=O)c3c(O)cc(O[C@@H]4O[C@H](CO[C@@H]5O[C@@H](C)[C@H](O)[C@@H](O)[C@H]5O)[C@@H](O)[C@H](O)[C@H]4O)cc3o2)cc1,62.4
Cc1cc(C(=O)NNCc2ccccc2)no1,83.6*
Cc1ccc(-n2nc(C(C)(C)C)cc2NC(=O)Nc2ccc(OCCN3CCOCC3)cc2)cc1,73.8*
C[C@@H](O)CCCCn1c(=O)c2c(ncn2C)n(C)c1=O,0.0
CC1(C)C[C@@H]1C(=O)N/C(=C\CCCCSC[C@H](N)C(=O)O)C(=O)O,0.0